Measured values taken from patent US20090312349A1, “ANTI-INFLAMMATORY MEDICAMENTS” (priority 2004, published 2009).

Amino acid sequences for entries named in this document (tags omitted). Chains listed by the source or under a name are the forms on record and can include a tag or linker. Residues count along the entry.
UniProt P35968, with tags, fused parts or gaps DEL940-989/E990V: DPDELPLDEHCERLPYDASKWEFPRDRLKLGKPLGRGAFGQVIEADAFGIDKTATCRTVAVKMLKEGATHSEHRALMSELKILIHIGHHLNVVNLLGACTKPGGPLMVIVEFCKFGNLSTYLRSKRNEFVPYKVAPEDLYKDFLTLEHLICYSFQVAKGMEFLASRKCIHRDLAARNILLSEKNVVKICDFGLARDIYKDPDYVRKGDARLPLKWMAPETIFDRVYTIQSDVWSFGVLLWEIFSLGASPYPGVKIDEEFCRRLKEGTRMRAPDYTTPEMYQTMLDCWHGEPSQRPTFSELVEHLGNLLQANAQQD
UniProt Q16539, whole entry: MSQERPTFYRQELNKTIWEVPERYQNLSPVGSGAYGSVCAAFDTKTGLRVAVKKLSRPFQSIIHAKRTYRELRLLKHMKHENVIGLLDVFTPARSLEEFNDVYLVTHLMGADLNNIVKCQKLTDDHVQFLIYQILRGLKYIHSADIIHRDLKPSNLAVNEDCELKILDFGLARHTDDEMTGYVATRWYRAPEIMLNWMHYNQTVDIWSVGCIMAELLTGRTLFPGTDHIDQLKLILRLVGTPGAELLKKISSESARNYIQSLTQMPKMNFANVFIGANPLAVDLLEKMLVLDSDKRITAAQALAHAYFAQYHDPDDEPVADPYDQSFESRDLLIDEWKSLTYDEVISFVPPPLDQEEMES
UniProt Q16539, 1-360 isoform Q16539-2: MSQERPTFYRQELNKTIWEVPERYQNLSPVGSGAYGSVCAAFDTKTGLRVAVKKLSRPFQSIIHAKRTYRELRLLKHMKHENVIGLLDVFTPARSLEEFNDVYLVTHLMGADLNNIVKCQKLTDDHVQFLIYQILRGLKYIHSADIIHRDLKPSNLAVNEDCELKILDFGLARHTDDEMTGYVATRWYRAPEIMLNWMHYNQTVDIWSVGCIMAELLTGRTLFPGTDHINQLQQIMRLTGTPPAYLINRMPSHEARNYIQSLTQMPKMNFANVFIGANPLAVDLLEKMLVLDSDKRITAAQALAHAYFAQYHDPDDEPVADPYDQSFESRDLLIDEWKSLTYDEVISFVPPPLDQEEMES
UniProt P15056, with tags, fused parts or gaps V600E: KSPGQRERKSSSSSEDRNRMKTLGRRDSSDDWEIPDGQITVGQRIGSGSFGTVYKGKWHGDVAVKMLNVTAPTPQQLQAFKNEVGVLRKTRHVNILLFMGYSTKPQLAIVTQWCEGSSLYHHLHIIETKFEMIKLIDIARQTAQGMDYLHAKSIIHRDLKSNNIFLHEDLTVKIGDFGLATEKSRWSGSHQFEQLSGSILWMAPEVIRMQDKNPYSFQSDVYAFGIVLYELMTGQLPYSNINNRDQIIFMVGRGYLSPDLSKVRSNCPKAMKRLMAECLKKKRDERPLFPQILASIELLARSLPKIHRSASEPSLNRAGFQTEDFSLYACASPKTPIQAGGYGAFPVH
UniProt P15056, 433-726 V600E: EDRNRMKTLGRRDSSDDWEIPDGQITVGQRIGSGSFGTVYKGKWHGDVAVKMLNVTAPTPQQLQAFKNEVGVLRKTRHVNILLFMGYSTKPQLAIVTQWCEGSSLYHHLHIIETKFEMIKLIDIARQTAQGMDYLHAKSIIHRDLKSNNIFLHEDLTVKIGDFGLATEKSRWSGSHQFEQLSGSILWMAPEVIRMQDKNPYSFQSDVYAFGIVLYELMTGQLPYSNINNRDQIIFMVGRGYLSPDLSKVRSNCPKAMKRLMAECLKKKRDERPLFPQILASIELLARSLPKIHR

Columns and labels:
[1] = biological target: T1, KDR kinase (Homo sapiens, UniProt P35968, DEL940-989/E990V); experiment: KDR kinase assay K1; type: biochemical
Protocol: IC50 values were calculated from a series of percent inhibition values determined at a range of inhibitor concentrations using software routines as implemented in the GraphPad Prism software package.

[2] = biological target: T2, phospho p-38 alpha kinase (Homo sapiens, UniProt Q16539); experiment: P-38 alpha kinase assay (spectrophotometric, pyruvate kinase/lactate dehydrogenase coupled); type: biochemical; settings: for IC50: Table 5, assay not named
T2 construct: purchased Panvera
Protocol: In this assay, the oxidation of NADH was continuously measured spectrophometrically. […] The reaction was initiated by adding ATP. The absorption at 340 nm was monitored continuously for up to 4 hours at 30° C. on Polarstar Optima plate reader (BMG). The kinase activity (reaction rate) was calculated from the slope at the time frame from 1.5 h to 2 h.
For inhibition determinations, test compounds were incubated with the reaction mixture for ˜5 min before adding ATP to start the reaction. […] IC50 values were calculated from a series of % inhibition values determined at a range of concentrations of each inhibitor using Prism to process the data and fit inhibition curves. Generally, the rates obtained at the time frame of 1.5 h to 2 h were used for these calculations.

[3] = biological target: T3, B-Raf(V599E) kinase (Homo sapiens, UniProt P15056, V600E); experiment: B-Raf(V599E) kinase assay B1; type: biochemical; settings: Method B1; construct 1
Protocol: (§1) The test compounds were incubated with the reaction mixture at 30° C. for 2 h. […] The reaction rate was calculated using the 1.5 h to 2.5 h time frame. […] IC50 values were calculated from a series of percent inhibition values determined at a range of inhibitor concentrations using software routines as implemented in the GraphPad Prism software package.

[4] = biological target: phosphorylated p-38-alpha kinase (Homo sapiens, UniProt Q16539); experiment: P-38 alpha kinase assay P1; type: biochemical; settings: Method P1; 2 h pre-incubation before ATP
[5] = biological target: T3, B-Raf(V599E) kinase; experiment: biochemical
Protocol: as §1
Same as assay B1 except that (1) construct 2 was employed at a nominal concentration of 2 nM (2) the reaction was pre-incubated at 30° C. for 1 h prior to initiation with ATP (3) a reading time frame of 0.5 h to 1.5 h.

[6] = biological target: T1, KDR kinase; experiment: KDR kinase assay K2

CC(C)(C)c1cc(NC(=O)Nc2cccc(Cl)c2Cl)n(-c2ccc(CC(=O)N3CCCC(C(=O)O)C3)cc2)n1 (centres unmarked) [Example 476, 1-(2-(4-(3-tert-butyl-5-(3-(2,3-dichlorophenyl)ureido)-1H-pyrazol-1-yl)phenyl)acetyl)piperidine-3-carboxylic acid]
IC50 [1]: 1100 nM

CN(C)[C@@H]1CCN(C(=O)Cc2cccc(-n3nc(C(C)(C)C)cc3NC(=O)Nc3cccc(Cl)c3Cl)c2)C1 [Example 464, 1-(3-tert-butyl-1-(3-(2-((R)-3-(dimethylamino)pyrrolidin-1-yl)-2-oxoethyl)phenyl)-1H-pyrazol-5-yl)-3-(2,3-dichlorophenyl)urea]
IC50 [2]: 0.019 µM
IC50 [3]: 0.043 µM
IC50 [4]: 0.011 µM

Cn1c(=O)c(-c2cccc(NC(=O)Nc3cc(C4CCCC4)nn3-c3cccc(CC(N)=O)c3)c2)cc2cncnc21 [Example 514, 1-(1-(3-(2-amino-2-oxoethyl)phenyl)-3-cyclopentyl-1H-pyrazol-5-yl)-3-(3-(8-methyl-7-oxo-7,8-dihydropyrido[2,3-d]pyrimidin-6-yl)phenyl)urea]
IC50 [5]: 36 nM

CC(C)(C)c1cc(NC(=O)Nc2cccc3ccccc23)n(-c2ccc(C=O)cc2)n1 [Example 359, 1-[3-t-butyl-1-(4-formylphenyl)-1H-pyrazol-5-yl]-3-(naphthalen-1-yl)urea]
IC50 [2]: 0.013 µM

CN(C)[C@H]1CCN(C(=O)Cc2cccc(-n3nc(C(C)(C)C)cc3NC(=O)Nc3cccc(Cl)c3Cl)c2)C1 [Example 465, 1-(3-tert-butyl-1-(3-(2-((S)-3-(dimethylamino)pyrrolidin-1-yl)-2-oxoethyl)phenyl)-1H-pyrazol-5-yl)-3-(2,3-dichlorophenyl)urea]
IC50 [3]: 0.011 µM
IC50 [4]: 0.013 µM

CC(C)(C)c1cc(NC(=O)Nc2ccccc2F)n(-c2cccc(CO)c2)n1 [Example 200, 1-{3-t-butyl-1-[3-(hydroxymethyl)phenyl]-1H-pyrazol-5-yl}-3-(2-fluorophenyl)urea]
inhibition at 1 µM ([2]; read-out: % Inhibition @ concentration, uM): 73%

CC(C)(C)c1cc(NC(=O)Nc2cccc(F)c2F)n(-c2cccc(CC(N)=O)c2)n1 [Example 495, 1-(1-(3-(2-amino-2-oxoethyl)phenyl)-3-tert-butyl-1H-pyrazol-5-yl)-3-(2,3-difluorophenyl)urea]
IC50 [6]: 2700 nM

CC(C)(C)c1cc(NC(=O)Nc2cccc(Cl)c2Cl)n(-c2cccc(CC(N)=O)c2)n1 [Example 308, 1-{1-[3-(2-amino-2-oxoethyl)phenyl]-3-t-butyl-1H-pyrazol-5-yl}-3-(2,3-dichlorophenyl)urea]
IC50 [2]: 0.12 µM
